Legend:
Cannabinoid receptor 2 = Cannabinoid receptor 2 (Homo sapiens, UniProt P34972); test: Binding affinity to CB2 receptor (unknown origin)
Homo sapiens [1] = species: Homo sapiens; test: Selectivity index, ratio of EC50 for human CB1 receptor to Ki for human CB2 receptor
Cannabinoid receptor 1 = Cannabinoid receptor 1 (Homo sapiens, UniProt P21554); test: Binding affinity to CB1 receptor (unknown origin)
Homo sapiens [2] = species: Homo sapiens; test: Selectivity index, ratio of Ki for CB1 receptor (unknown origin) to Ki for CB2 receptor (unknown origin); settings: tested as the 11C-labelled form

Sequences of proteins named here, by UniProt entry; tags and fusion partners are left off.
UniProt P34972, whole entry: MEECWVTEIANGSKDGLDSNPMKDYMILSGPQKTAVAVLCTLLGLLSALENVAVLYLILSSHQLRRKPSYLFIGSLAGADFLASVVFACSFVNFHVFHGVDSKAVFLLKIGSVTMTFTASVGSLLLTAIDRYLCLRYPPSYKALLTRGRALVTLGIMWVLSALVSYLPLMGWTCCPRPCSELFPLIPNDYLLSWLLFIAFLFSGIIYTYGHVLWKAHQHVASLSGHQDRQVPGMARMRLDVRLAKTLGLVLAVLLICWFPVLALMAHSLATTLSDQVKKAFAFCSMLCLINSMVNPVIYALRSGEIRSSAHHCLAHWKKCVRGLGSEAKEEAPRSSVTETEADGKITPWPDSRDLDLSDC
UniProt P21554, whole entry: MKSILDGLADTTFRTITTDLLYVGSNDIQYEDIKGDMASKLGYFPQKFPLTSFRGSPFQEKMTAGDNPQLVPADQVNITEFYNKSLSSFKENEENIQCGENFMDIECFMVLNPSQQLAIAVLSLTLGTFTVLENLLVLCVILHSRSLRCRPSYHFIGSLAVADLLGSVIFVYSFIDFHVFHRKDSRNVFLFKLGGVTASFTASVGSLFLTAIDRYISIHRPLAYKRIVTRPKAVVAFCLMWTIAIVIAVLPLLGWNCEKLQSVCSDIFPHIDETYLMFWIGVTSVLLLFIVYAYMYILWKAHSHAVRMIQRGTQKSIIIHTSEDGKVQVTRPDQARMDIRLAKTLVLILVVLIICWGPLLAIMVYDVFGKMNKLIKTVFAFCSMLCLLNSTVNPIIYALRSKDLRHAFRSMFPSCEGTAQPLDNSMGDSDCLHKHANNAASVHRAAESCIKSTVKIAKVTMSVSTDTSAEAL

With `CCOCCn1cc(C(=O)NC23CC4CC(CC(C4)C2)C3)c(=O)c2cccc(O[11CH3])c21` the Ki (Cannabinoid receptor 2) was 0.7 nM.

In the case of `CC(C)[C@H](NC(=O)c1nn(Cc2ccc(F)cc2)c2ccccc12)C(N)=O`, the Ratio EC50 (Homo sapiens [1]) is reported as 1.5 to 3.2.

Work on `[11CH3]OC(=O)c1c(NC(=O)C23CC4CC(CC(O)(C4)C2)C3)sc2c1CCCC2` yielded a Ki (Cannabinoid receptor 2) of 3.3 nM and a Ki (Cannabinoid receptor 1) of 1000 nM.

For `COC(=O)c1c(NC(=O)C23CC4CC(CC(O)(C4)C2)C3)sc2c1CCCC2`, the Ratio Ki (Homo sapiens [2]) was 303.

From ChEMBL document CHEMBL4028847, “Perspectives of Cannabinoid Type 2 Receptor (CB2R) Ligands in Neurodegenerative Disorders: Structure-Affinity Relationship (SAfiR) and Structure-Activity Relationship (SAR) Studies” (J Med Chem, 2017)
